Measurements taken from ChEMBL document CHEMBL3856233, “Identification of (R)-(2-Chloro-3-(trifluoromethyl)phenyl)(1-(5-fluoropyridin-2-yl)-4-methyl-6,7-dihydro-1H-imidazo[4,5-c]pyridin-5(4H)-yl)methanone (JNJ 54166060), a Small Molecule Antagonist of the P2X7 receptor” (J Med Chem, 2016).

By UniProt entry, the sequences of proteins in these tests, tags left out.
UniProt P05177, whole entry: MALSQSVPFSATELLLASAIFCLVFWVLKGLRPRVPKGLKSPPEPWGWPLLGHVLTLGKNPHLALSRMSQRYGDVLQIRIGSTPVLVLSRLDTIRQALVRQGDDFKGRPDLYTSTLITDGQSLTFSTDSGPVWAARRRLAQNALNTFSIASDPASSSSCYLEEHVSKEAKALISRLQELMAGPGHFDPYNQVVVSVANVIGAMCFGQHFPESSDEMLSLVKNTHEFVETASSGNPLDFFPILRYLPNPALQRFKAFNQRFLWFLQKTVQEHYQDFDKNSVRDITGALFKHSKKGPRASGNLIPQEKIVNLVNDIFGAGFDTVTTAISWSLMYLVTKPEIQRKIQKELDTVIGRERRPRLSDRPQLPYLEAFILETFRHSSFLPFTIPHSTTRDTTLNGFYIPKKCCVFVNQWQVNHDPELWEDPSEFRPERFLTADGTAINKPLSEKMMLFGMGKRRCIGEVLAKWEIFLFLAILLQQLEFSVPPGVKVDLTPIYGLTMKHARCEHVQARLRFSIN
UniProt P10632, whole entry: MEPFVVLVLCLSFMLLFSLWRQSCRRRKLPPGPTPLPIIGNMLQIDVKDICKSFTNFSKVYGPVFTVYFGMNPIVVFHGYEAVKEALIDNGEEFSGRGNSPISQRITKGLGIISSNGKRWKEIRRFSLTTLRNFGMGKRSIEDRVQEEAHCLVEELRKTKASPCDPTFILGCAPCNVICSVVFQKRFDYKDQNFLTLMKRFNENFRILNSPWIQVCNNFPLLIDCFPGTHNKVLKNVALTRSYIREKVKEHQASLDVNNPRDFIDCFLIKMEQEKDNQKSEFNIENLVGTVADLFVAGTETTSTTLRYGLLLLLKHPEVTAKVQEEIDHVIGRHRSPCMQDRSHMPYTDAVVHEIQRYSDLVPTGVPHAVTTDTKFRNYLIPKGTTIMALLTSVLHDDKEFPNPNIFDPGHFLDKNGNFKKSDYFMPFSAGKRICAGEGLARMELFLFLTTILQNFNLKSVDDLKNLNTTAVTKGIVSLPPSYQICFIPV
UniProt P08684, whole entry: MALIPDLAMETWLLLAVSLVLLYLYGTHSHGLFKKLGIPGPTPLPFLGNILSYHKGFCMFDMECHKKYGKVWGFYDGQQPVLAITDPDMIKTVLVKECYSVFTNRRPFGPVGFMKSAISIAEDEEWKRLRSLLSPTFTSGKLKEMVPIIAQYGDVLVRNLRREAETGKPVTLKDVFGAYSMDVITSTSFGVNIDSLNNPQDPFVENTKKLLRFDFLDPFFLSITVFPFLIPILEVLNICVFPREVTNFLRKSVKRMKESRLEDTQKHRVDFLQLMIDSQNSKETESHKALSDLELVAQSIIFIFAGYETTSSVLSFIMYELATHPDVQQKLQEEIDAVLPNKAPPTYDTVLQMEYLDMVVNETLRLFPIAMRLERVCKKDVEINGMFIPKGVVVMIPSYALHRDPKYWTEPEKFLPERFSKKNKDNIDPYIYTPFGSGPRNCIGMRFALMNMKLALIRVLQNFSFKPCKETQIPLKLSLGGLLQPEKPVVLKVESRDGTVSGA
UniProt P10635, whole entry: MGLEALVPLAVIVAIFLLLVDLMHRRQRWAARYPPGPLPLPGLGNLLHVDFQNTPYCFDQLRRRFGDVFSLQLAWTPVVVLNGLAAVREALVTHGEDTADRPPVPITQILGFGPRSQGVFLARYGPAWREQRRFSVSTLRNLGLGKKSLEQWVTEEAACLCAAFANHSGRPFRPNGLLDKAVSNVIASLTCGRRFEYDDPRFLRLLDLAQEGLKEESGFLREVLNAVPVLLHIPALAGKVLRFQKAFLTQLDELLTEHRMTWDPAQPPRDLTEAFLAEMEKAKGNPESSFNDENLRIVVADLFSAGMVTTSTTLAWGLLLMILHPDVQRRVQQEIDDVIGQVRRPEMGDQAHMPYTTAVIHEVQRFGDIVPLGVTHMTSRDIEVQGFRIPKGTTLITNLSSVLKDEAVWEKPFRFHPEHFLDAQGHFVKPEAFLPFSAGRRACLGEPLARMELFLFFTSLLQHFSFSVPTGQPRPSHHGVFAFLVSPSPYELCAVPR

Tests used:
Cytochrome P450 1A2 = Cytochrome P450 1A2 (Homo sapiens, UniProt P05177); assay: Inhibition of CYP1A2 in human liver microsomes using phenacetin as substrate after 15 mins by LC/MS/MS analysis; format: ADME
Cytochrome P450 2C8 = Cytochrome P450 2C8 (Homo sapiens, UniProt P10632); assay: Inhibition of CYP2C8 in human liver microsomes using paclitaxel as substrate after 15 mins by LC/MS/MS analysis; format: ADME
[1] = rat, microsomes, 1 h, 1 µM
Cytochrome P450 3A4 = Cytochrome P450 3A4 (Homo sapiens, UniProt P08684); assay: Inhibition of CYP3A4 in human liver microsomes using midazolam as substrate assessed as reduction in 4-OH-midazolam formation by LC/MS/MS analysis; format: ADME, tissue-based
Cytochrome P450 2D6 = Cytochrome P450 2D6 (Homo sapiens, UniProt P10635); assay: Inhibition of CYP2D6 in human liver microsomes using dextromethorphan as substrate after 15 mins by LC/MS/MS analysis; format: ADME
[2] = human, microsomes, 1 h, 1 µM

| IC50 (Cytochrome P450 1A2) [µM] | IC50 (Cytochrome P450 2C8) [µM] | SMILES | ERH [1] | IC50 (Cytochrome P450 3A4) [µM] | IC50 (Cytochrome P450 2D6) [µM] | ERH [2] |
| --- | --- | --- | --- | --- | --- | --- |
| > 10 | > 10 | C[C@@H]1c2ncn(-c3ccc(F)cc3)c2CCN1C(=O)c1cccc(C(F)(F)F)c1Cl |  |  |  |  |
|  |  | C[C@@H]1c2ncn(-c3ccc(F)cn3)c2CCN1C(=O)c1cccc(C(F)(F)F)c1Cl | 0.64 | > 10 | > 10 | 0.35 |
